# Experimental data reported in US20120214775A1, “Pharmaceutical Salts of 3-O-(3',3'-Dimethylsuccinyl) Betulinic Acid” (priority 2004, published 2012).
# Assay: Qualitative solubility of salt forms in solvent systems (appearance at attempted concentration)
# Format: physicochemical
SMILES,"Appearance (Hydroxypropyl-β-cyclodextrin 10% (in water), attempted 15.1 mg/mL)","Appearance (Hydroxypropyl-β-cyclodextrin 10% (in water), attempted 27.7 mg/mL)","Appearance (Hydroxypropyl-β-cyclodextrin 10% (in water), attempted 27.7 mg/mL, listed as DSB—(Na)2)","Appearance (Hydroxypropyl-β-cyclodextrin 20% (in water), attempted 27.9 mg/mL)","Appearance (Hydroxypropyl-β-cyclodextrin 10% (in water), attempted 29.0 mg/mL)","Appearance (Water 84%, PEG 400 12%, Ethanol 4%, attempted 42.2 mg/mL)","Appearance (Water 100%, attempted 3.5 mg/mL)"
"C=C(C)[C@@H]1CC[C@]2(C(=O)[O-])CC[C@]3(C)[C@H](CC[C@@H]4[C@@]5(C)CC[C@H](OC(=O)CC(C)(C)C(=O)[O-])C(C)(C)[C@@H]5CC[C@]43C)[C@@H]12.[Na+].[Na+] [DSB-(Na)2, di-sodium salt of 3-O-(3′,3′-dimethylsuccinyl)betulinic acid]",Solution clear,cloudy,Solution cloudy,Solution clear,,,
"C=C(C)[C@@H]1CC[C@]2(C(=O)[O-])CC[C@]3(C)[C@H](CC[C@@H]4[C@@]5(C)CC[C@H](OC(=O)CC(C)(C)C(=O)[O-])C(C)(C)[C@@H]5CC[C@]43C)[C@@H]12.[K+].[K+] [DSB-K2, di-potassium salt of 3-O-(3′,3′-dimethylsuccinyl) betulinic acid]",,,,,Solution clear,Solution cloudy,Solution cloudy
